This experiment has as its target T1, recombinant human C1q protein (Fitzgerald) (human).
T1 construct: also called human recombinant complement protein, C1q
In words: ELISA; test protein immobilised in serial dilution, recombinant human C1q added, anti-C1q-HRP. For orientation: In an ELISA, binding on a coated surface is turned into a signal by an enzyme label.

B1: human FLT3-ligand human IgG4 (S228P/L235E) fusion protein (SEQ ID NO:3) (Fc fusion)
chain: TQDCSFQHSPISSDFAVKIRELSDYLLQDYPVTVASNLQDEELCGGLWRLVLAQRWMERLKTVAGSKMQGLLERVNTEIHFVTKCAFQPPPSCLRFVQTNISRLLQETSEQLVALKPWITRQNFSRCLELQCQPDSSTLPPPWSPRPLEATAPTAPQESKYGPPCPPCPAPEFEGGPSVFLFPPKPKDTLMISRTPEVTCVVVDVSQEDPEVQFNWYVDGVEVHNAKTKPREEQFNSTYRVVSVLTVLHQDWLNGKEYKCKVSNKGLPSSIEKTISKAKGQPREPQVYTLPPSQEEMTKNQVSLTCLVKGFYPSDIAVEWESNGQPENNYKTTPPVLDSDGSFFLYSRLTVDKSRWQEGNVFSCSVMHEALHNHYTQKSLSLSLGK
notes: also called FLT3L ECD-hG4 S228P/L235E
With B1, the binding result is listed as “no binding (tested: 94 nM (top of the titration))”.

Source of the values: patent US20220049021A1 (Gilead, published 2022).
